Reference: US7869958B2, “Structure-based modulators of B1 G-protein coupled receptors” (priority 2004, dated 2011)

Tests used:
[1] = molecular target: ECD1-CRFR2β (amino acids 39-133 of mCRFR2β) (Mus musculus, UniProt Q60748, T50I); details: read-out: inhibitory binding constant; soluble protein fragment ECD1-CRFR2β; range in brackets; cited from earlier work
myc-mCRFR2β = molecular target: T1, myc-mCRFR2β (Mus musculus, UniProt Q60748, K372N/R373G/T50I); experiment: Radioreceptor assay, displacement of [125I-DTyr0]-astressin from COSM6 membranes; details: membranes from COSM6 cells transiently expressing myc-mCRFR2β; range in brackets; read-out: inhibitory binding constant Ki
T1 construct: expressed in transfected cells; host or cells: COSM6 cells, transient, pcDNA3; crude membranes
Text: (§1) FIGS. 3A-3D depict the identification of the binding site of astressin on the 3D structure of ECD1-CRFR2β. FIG. 3A is a 2D [^15N, ^1H]-HMQC spectra of ECD1-CRFR2β in the absence and presence of astressin. FIG. 3B is a plot of the normalized chemical shift changes [Δ(δ(^1H))^2+Δ(^15N))^2/5]^1/2 observed in the complex versus the amino acid sequence. FIG. 3C is a surface representation of ECD1-CRFR2β showing the amino acids involved in binding with astressin. FIG. 3D is a competitive displacement by astressin of [^125I-DTyr^0]-astressin bound to membranes from COSM6 cells transiently expressing myc-mCRFR2β (●); myc-mCRFR2β (K92Q) (□); myc-mCRFR2β (R112E) (Δ); myc-mCRFR2β (I67E)(⋄); myc-mCRFR2β (R112W) (∇).
(§2) Radioreceptor assays. Mutant receptors or myc-mCRFR2β, were transiently transfected into COSM6 cells followed by binding to crude membrane preparations. Binding to myc-mCRFR2β was performed in triplicate, as described (See Perrin et al., 2003).

myc-mCRFR2β (R112W) = molecular target: T2, myc-mCRFR2β (R112W) (Mus musculus, UniProt Q60748, K372N/R373G/R92W/T50I); experiment: Radioreceptor assay, mutant receptor R112W; details: COSM6 membranes, range in brackets, read-out: inhibitory binding constant Ki
T2 construct: expressed in transfected cells; host or cells: COSM6 cells, transient, pcDNA3; crude membranes
Text: as §1, §2

myc-mCRFR2β (K92Q) = molecular target: T3, myc-mCRFR2β (K92Q) (Mus musculus, UniProt Q60748, K372N/K72Q/R373G/T50I); experiment: Radioreceptor assay, mutant receptor K92Q; details: COSM6 membranes, range in brackets, read-out: inhibitory binding constant Ki
T3 construct: expressed in transfected cells; host or cells: COSM6 cells, transient, pcDNA3; crude membranes
Text: as §1, §2

myc-mCRFR2β (I67E) = molecular target: T4, myc-mCRFR2β (I67E) (Mus musculus, UniProt Q60748, I47E/K372N/R373G/T50I); experiment: Radioreceptor assay, mutant receptor I67E; details: COSM6 membranes, range in brackets, read-out: inhibitory binding constant Ki
T4 construct: expressed in transfected cells; host or cells: COSM6 cells, transient, pcDNA3; crude membranes
Text: as §1, §2

myc-mCRFR2β (R112E) = molecular target: T5, myc-mCRFR2β (R112E) (Mus musculus, UniProt Q60748, K372N/R373G/R92E/T50I); experiment: Radioreceptor assay, mutant receptor R112E; details: COSM6 membranes, range in brackets, read-out: inhibitory binding constant Ki
T5 construct: expressed in transfected cells; host or cells: COSM6 cells, transient, pcDNA3; crude membranes
Text: as §1, §2

Substance: astressin
- Ki [1]: 21.1 nM
- Ki (myc-mCRFR2β): 1.1 nM
- Ki (myc-mCRFR2β (R112W)): 1.9 nM
- Ki (myc-mCRFR2β (K92Q)): 3.1 nM
- Ki (myc-mCRFR2β (I67E)): 128 nM
- Ki (myc-mCRFR2β (R112E)): 7.2 nM
